The text below walks through data of BindingDB's records for doi:10.1073/pnas.96.13.7563 (St. Bartholomew's and The Royal London School of …, 1999).

By UniProt entry, the sequences of proteins in these tests, tags left out.
UniProt P23219, whole entry: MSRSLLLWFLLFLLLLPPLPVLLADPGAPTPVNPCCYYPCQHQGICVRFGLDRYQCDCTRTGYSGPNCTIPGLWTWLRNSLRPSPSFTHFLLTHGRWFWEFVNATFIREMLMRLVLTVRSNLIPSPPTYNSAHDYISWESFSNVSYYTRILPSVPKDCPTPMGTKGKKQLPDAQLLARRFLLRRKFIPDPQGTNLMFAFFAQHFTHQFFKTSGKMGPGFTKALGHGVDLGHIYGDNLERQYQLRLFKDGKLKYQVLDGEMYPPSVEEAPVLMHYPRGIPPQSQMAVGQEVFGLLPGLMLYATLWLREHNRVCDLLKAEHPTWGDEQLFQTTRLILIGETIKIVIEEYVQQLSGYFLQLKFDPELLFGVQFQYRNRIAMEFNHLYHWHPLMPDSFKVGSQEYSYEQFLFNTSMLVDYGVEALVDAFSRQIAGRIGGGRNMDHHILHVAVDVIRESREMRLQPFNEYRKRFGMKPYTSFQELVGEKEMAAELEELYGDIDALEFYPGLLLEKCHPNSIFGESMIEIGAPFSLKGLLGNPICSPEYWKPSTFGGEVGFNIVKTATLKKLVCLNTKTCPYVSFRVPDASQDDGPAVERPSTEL

The assay deals with Prostaglandin G/H synthase 1 (Homo sapiens, UniProt P23219).

The Ki is the equilibrium dissociation constant of an inhibitor or competing ligand from its target. Lower therefore signals tighter binding. `CC(C(=O)O)c1ccc(-c2ccccc2)c(F)c1` (racemic) [2-(2-fluoro-[1,1'-biphenyl-4-yl])propanoic acid] yielded a Ki of 0.075 µM.
For `O=C(O)c1cccnc1Nc1cccc(C(F)(F)F)c1` [NSC_4488] the value was over 10 µM; for `CN1C(C(=O)Nc2ccccn2)=C(O)c2ccccc2S1(=O)=O` [NSC_4856], 2.4 µM.
